Measurements reported in PubChem BioAssay AID1259374 (The Scripps Research Institute Molecular Screening Center, 2018).
The entries are a selection whose mix differs from that of the whole data set. Activity calls are given as the source filed them. Rule as the data show it: active = inhibition above about 50%; inactive = the rest.

The chains behind the UniProt entries cited, without tags or fusion partners.
UniProt O75030, whole entry: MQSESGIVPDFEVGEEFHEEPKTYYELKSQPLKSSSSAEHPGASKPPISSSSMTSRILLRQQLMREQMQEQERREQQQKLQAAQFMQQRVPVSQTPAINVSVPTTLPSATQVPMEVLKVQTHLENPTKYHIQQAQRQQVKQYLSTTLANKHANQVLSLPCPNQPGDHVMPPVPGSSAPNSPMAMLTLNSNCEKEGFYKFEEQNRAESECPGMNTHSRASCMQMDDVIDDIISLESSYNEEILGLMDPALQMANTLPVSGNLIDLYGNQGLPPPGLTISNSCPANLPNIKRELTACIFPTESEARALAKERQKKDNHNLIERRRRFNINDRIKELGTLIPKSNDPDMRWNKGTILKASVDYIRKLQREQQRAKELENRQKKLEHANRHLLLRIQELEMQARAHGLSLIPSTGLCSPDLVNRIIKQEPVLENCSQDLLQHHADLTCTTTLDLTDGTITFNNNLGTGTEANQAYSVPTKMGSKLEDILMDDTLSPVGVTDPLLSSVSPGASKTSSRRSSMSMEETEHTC

target: Microphthalmia-associated transcription factor (Homo sapiens) (UniProt O75030); test: MITF inhibitors, primary screen, biochemical, AlphaScreen, human (AID 1259374); conditions: AlphaScreen MITF homodimerization, bead proximity signal; at 2.6 µM; stronger effect = higher value;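 also: 0% = vehicle wells with protein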

Structure (SMILES)	inhibition
Cc1ccc(NP(C)(=O)Oc2ccccc2)cc1C (stereo not drawn)	inactive: 4.08%
CCN(CC)P(=O)(c1c([N+](=O)[O-])cc([N+](=O)[O-])cc1[N+](=O)[O-])N(CC)CC	inactive: -0.21%
CP(=O)(O)OC(c1cccc(Cl)c1)C(F)(F)F (stereo not drawn)	inactive: -5.35%
CP(=O)(NC(=O)Nc1ccccc1)Oc1ccccc1 (stereo not drawn)	inactive: 5.09%
C=C(C)CC1NC2CC(C)(C)C1c1ccccc12.O=[N+]([O-])c1cc([N+](=O)[O-])c(O)c([N+](=O)[O-])c1 (stereo not drawn)	inactive: -19.4%
COc1ccc(NP(C)(=O)Oc2ccc(C(C)C)cc2)cc1 (stereo not drawn)	inactive: -9.55%
CCOP(C)(=S)SCC(=O)NC(Cc1ccccc1)C(=O)O (stereo not drawn)	inactive: 5.77%
COc1cc2nc(C)sc2cc1NC(C)=O	inactive: 23.4%
CP(=O)(Nc1ccccn1)Oc1ccc(Cl)cc1 (stereo not drawn)	inactive: -3.56%
CCOP(C)(=S)SCC(=O)NC(C)C(=O)O (stereo not drawn)	inactive: 1.39%
Cc1ccc(Cl)cc1OP(C)(=O)Nc1cccc2nsnc12 (stereo not drawn)	inactive: -0.26%
COc1ccccc1OP(C)(=O)Nc1cccc(Cl)c1C (stereo not drawn)	inactive: 8.33%
CP(=O)(O)OC(c1ccc(Cl)cc1)C(F)(F)F (stereo not drawn)	inactive: -3.07%
Cc1cccc(NP(C)(=O)Oc2ccccc2)c1 (stereo not drawn)	inactive: 13.1%
CCOC(=O)c1ccc(NP(C)(=O)Oc2ccc(OC)cc2)cc1 (stereo not drawn)	inactive: -0.45%
O=[N+]([O-])c1cc([N+](=O)[O-])c(CCO)c([N+](=O)[O-])c1	inactive: 3.16%
COc1ccc(NP(C)(=O)OC(c2ccccc2)C(F)(F)F)cc1 (stereo not drawn)	inactive: -6.93%
CP(=O)(O)OC(c1ccccc1)C(F)(F)F (stereo not drawn)	inactive: 4.63%
CN(C)CCOC(=O)C(O)(c1ccccc1)c1ccccc1	inactive: -5.15%
COc1ccccc1OP(C)(=O)Nc1ccccc1 (stereo not drawn)	inactive: 11.4%
CC(Nc1c([N+](=O)[O-])cc([N+](=O)[O-])cc1[N+](=O)[O-])c1ccc([N+](=O)[O-])cc1 (stereo not drawn)	inactive: 20.7%
CP(=O)(Nc1ccccc1Br)Oc1ccccc1 (stereo not drawn)	inactive: 4.33%
CP(=O)(Nc1ccc(Cl)cc1)Oc1ccccc1 (stereo not drawn)	inactive: -17.2%
O=C(O)C(O)(c1ccccc1)c1ccccc1	inactive: -7.12%
O=C(O)Cc1c([N+](=O)[O-])cc([N+](=O)[O-])cc1[N+](=O)[O-]	inactive: 17.7%
CCc1ccc(OP(C)(=O)Nc2ccccc2I)cc1 (stereo not drawn)	inactive: 12.5%
CP1(=O)Oc2ccccc2Cc2ccccc2O1	inactive: 10.7%
CC(CCN([N+](=O)[O-])S(=O)(=O)c1ccc([N+](=O)[O-])cc1)([N+](=O)[O-])[N+](=O)[O-]	inactive: -10.2%
